These results are taken from patent US20020081684A1, “Method and nucleotide sequence for transforming microorganisms” (priority 1995, published 2002).

Structures are written as SMILES.

One test concerns the target T1, S. pombe Mae1 permease (Schizosaccharomyces pombe, UniProt P50537).
T1 construct: endogenous in cells; host or cells: S. pombe 972 leu1-32 h- (wild type); also the mae1- mutant complemented with the 3.4 kb SmaI genomic mae1 fragment in pRS315
T1 sequence (P50537 1-438): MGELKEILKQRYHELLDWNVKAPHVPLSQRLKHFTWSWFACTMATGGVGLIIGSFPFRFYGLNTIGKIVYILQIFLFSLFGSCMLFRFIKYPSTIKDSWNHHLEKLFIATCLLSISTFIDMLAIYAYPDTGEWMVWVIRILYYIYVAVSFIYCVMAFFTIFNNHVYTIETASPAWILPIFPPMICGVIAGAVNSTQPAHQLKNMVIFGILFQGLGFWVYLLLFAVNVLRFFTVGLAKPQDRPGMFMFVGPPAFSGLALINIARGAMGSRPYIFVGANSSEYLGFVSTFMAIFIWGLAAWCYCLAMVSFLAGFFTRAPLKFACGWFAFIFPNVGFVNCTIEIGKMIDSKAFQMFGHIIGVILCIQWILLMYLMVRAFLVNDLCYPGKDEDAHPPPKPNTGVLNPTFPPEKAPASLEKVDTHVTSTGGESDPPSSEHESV
The test is described as follows: Transport assays for 14C-labelled L-malic, succinic, malonic and α-ketoglutaric acids in S. pombe wild-type, mae1- mutant and complemented mutant. The test is classed as cell-based. On the procedure: Yeast cells in the logarithmic growth phase (OD of 1.2 at A595) were harvested and washed three times with 0.1 M KCI (pH 3.5). The cells were resuspended in 4 ml 0.1 M KCI (pH 3.5) and stored at 4° C. Transport assays were completed within 3 h. The cell suspensions were pre-incubated for 5 min in a shaker water bath at 30° C. at 100 rpm. Assays were initiated by adding 25 μl of ^14C-labelled L malate (45 μCi/μmol) (Amersham), 100 μl of succinic acid (42 μCi/μmol) (ICN), 100 μl malonic add (56.7 μCi/μmol) (Du Pont) or 100 μl a-ketoglutarate (51.8 μCi/μmol) (Du Pont). A 0.5-ml sample was withdrawn at 10, 20, 40, 60, and 120 sec intervals, rapidly filtered through 0.45 μm membranes (Mllipore Corporation, Bedford, Mass.), and immediately washed three times with 5 ml amounts of ice-cold 0.1 M KCI (pH 3.5). Filters containing the cells were oven-dried at 50° C. and placed in scintillation vials containing 5 ml of scintillation reaction mixture (Boehringer Mannheim, Mannheim, Germany). Pre-boiled (5 min) cells were used to determine non-specific binding of [^14C] malate, succinate, malonate and α-ketoglutarate to the yeast cells.
Malic, succinic, malonic and α-ketoglutaric acid transport assays were done using a wild-type strain of S. pombe, a mae1-mutant and the mae1-mutant complemented with the mae1 gene.

Test [1] concerns the target T2, L-malic acid carrier in S. pombe (Schizosaccharomyces pombe, UniProt P50537).
T2 construct: host or cells: S. pombe cells (per the assay title)
T2 sequence (P50537 1-438): T1 sequence (P50537 1-438)
Particulars: Sousa et al. (1992); cited from earlier work.

With `O=C(O)CCC(=O)C(=O)O` [α-ketoglutaric acid], the “transport by the S. pombe strains” value at S. pombe Mae1 permease is “not transported”. For the same molecule, the “inhibition of initial uptake rates of L-malic acid” value in test [1] is recorded as “competitive inhibition”.
